This passage reports IC50 and GI50 results from patent US8648092B2, “Imidazo[1,2-a]pyridine derivatives: preparation and pharmaceutical applications” (MEI Pharma, priority 2005, dated 2014).

Sequences of proteins named here, by UniProt entry; tags and fusion partners are left off.
UniProt Q13547, whole entry: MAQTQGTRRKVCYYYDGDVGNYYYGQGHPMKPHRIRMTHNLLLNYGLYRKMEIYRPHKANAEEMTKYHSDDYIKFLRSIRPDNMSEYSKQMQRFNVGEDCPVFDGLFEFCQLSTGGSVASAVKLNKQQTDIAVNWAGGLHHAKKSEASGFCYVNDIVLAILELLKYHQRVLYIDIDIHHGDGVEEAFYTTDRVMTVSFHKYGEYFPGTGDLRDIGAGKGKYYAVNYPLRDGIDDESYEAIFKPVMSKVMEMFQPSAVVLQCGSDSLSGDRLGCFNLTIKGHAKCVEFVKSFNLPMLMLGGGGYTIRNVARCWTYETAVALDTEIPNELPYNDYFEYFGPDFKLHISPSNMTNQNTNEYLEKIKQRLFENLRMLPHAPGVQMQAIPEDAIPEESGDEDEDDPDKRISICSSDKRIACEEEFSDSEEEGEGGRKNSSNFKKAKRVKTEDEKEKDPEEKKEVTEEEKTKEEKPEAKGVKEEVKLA

Molecules are shown by their SMILES.

A word on the IC50: it is the concentration needed to halve the response being measured. What is called GI50 is the concentration that inhibits growth by half.

Assay [1] deals with HDAC1 enzyme (recombinant GST-HDAC1) (Homo sapiens (Human), UniProt Q13547). As to the kind of experiment: In vitro HDAC assay for determination of IC50 values (BIOMOL fluorescent-based HDAC activity assay). The conditions noted are these: read-out: IC50 (HDAC 1), Flur de lys substrate, 2 h room temperature.
The test system of the next assay is Colo205 cells. The experiment in a line: Cell-based proliferation assay for determination of GI50 values (CyQUANT). As to conditions: read-out: GI50 (Colo205), 96 h treatment.

`CCN(CC)CCc1c(-c2ccccc2)nc2cc(/C=C/C(=O)NO)ccn12`: in assay [1], the IC50 amounted to 260 nM. Moreover, in the assay with Colo205 cells, the GI50 amounted to 1600 nM.
